{"sequences": {"note": "By UniProt entry, the sequences of proteins in these tests, tags left out.", "UniProt P19327, whole entry": "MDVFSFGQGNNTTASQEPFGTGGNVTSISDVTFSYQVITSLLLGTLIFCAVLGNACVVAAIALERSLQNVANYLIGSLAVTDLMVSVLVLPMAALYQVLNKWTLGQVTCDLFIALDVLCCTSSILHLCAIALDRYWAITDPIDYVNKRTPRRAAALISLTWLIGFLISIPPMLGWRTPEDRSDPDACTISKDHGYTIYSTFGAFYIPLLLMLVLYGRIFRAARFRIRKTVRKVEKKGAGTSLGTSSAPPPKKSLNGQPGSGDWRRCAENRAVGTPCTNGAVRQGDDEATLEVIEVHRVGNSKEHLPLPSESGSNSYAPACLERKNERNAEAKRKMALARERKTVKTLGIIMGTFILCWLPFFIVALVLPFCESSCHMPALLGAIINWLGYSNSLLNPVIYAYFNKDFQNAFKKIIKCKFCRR"}, "source": "ChEMBL document CHEMBL1148798", "about": "“High-efficacy 5-HT1A agonists for antidepressant treatment: a renewed opportunity” (J Med Chem, 2007)", "target": "5-hydroxytryptamine receptor 1A (Rattus norvegicus, UniProt P19327)", "experiment": "Binding affinity to 5HT1A receptor in rat cortex membrane", "format": "cell membranes", "data": [{"smiles": "NCCc1c[nH]c2ccc(O)cc12", "note": "[SEROTONIN]", "values": [{"measurement": "Ki", "result": 1.86, "unit": "nM"}]}]}
